Patent US8124056B2, “High throughput genetic screening of lipid and cholesterol processing using fluorescent compounds” (Trustees of the University of Pennsylvania, priority 2000, dated 2012)

System: lipid processing in zebrafish larvae
Assay: Atorvastatin effect on fluorescent lipid processing (gall bladder labeling) in zebrafish larvae
Format: in vivo, Danio rerio
Settings: for PED6 labeling of the gall bladder (processing of PED6): zebrafish larvae bathed in PED6 (0.6 μM) with atorvastatin (Lipitor tablet suspension containing 1 mg/ml)

Q: With `CC(C)c1c(C(=O)Nc2ccccc2)c(-c2ccccc2)c(-c2ccc(F)cc2)n1CC[C@@H](O)C[C@@H](O)CC(=O)O` [atorvastatin] as the molecule, how does the “effect of exogenous bile on atorvastatin block of PED6 gall bladder labeling” value (tilapia bile extract added to EM (20 μl/ml)) read?
A: Its value is “reversed this effect”.

Q: What about the “PED6 labeling of the gall bladder (processing of PED6)” value of the same molecule?
A: Its value is “completely blocked”.

Q: And the “PED6 labeling of the gall bladder (processing of PED6)” value (listed as Atorvastatin)?
A: The value was “inhibits processing of PED6”.
